Test results from publication doi:10.1101/2025.01.21.633066.

Chains of the proteins cited; added tags and fusions are not shown. Residues count along the entry.
UniProt P48061, 22-89: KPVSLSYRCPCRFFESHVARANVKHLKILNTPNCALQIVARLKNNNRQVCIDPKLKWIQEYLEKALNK

Target: solCXCR7
Assay: BLI

Kd: 8.1 nM
Substance: SDF1α (from UniProt P48061-2 22-89) (ligand)
